Results taken from PubChem BioAssay AID493225 (Broad Institute, 2011).
This is a selection; strong and weak results do not stand in their true shares. The source made the active and inactive calls.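 How the source made its calls: active means fitted curve reaching 40% activation, where positive control equals 100, at or below the top valid dose; inconclusive means flat curve between 30 and 70% activation, or a poor fit; inactive means the rest, including activity in the opposite direction.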

Sequences of proteins named here, by UniProt entry; tags and fusion partners are left off.
UniProt Q16665, whole entry: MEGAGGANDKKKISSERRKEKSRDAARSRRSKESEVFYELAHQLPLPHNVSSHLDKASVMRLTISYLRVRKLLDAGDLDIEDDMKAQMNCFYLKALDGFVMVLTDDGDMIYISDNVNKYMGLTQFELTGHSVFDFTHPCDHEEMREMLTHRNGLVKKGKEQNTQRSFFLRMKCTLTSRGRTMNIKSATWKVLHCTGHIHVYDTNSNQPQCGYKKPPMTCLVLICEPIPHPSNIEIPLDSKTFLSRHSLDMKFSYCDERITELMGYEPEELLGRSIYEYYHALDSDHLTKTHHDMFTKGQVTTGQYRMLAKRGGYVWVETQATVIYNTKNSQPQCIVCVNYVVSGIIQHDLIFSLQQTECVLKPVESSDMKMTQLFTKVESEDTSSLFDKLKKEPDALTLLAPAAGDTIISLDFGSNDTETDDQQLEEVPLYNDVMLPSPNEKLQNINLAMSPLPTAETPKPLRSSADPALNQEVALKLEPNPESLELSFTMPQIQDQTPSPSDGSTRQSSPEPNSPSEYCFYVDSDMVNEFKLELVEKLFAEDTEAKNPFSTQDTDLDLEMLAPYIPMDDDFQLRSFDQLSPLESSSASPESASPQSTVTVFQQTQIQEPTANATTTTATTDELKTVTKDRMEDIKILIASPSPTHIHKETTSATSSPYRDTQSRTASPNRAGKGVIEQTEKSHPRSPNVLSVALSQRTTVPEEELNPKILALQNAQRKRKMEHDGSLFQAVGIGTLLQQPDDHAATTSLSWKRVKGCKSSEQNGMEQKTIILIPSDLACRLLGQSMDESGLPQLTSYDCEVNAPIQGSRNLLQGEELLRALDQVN

Molecular target: Hypoxia-inducible factor 1-alpha (Homo sapiens) (UniProt Q16665)
Assay: HIF1A nuclear translocation activators in U2OS – imaging, U2OS GFP-HIF1alpha, high content, dry powder, set 2, orthogonal assay for HIF activator project, dose response (AID 493225)
Conditions: U2OS GFP-HIF1alpha nuclear intensity imaging; at 38 µM (top of the series)

O=c1[nH]c2ccccc2n1C1CCN(Cc2ccc(O)c3ncccc23)CC1
activation: inactive: 17.7%
